Test results: patent US20050287565A1, “Methods, compositions and compound assays for inhibiting amyloid-beta protein production” (priority 2004, published 2005)

The chains behind the UniProt entries cited, without tags or fusion partners.
UniProt P25103, whole entry: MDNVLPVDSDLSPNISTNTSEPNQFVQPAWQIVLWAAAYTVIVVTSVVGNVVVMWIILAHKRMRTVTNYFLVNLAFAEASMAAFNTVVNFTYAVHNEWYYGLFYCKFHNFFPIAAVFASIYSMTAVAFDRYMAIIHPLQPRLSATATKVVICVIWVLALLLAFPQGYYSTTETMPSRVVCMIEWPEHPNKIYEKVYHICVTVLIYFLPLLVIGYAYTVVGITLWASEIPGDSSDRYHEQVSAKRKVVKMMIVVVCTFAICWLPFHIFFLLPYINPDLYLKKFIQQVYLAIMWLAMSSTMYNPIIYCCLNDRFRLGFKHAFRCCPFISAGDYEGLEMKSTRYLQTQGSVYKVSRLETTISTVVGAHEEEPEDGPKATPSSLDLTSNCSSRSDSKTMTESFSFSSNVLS

Assays:
TACR1 [1] = molecular target: T1, TACR1 (Homo sapiens, UniProt P25103); assay: TACR1 agonist validation in SH-SY5Y APPwt cells, amyloid beta ELISA; type: cell-based; details: SH-SY5Y APPwt cells infected with Ad5/TACR1; increasing amounts of agonist, 24 h; concentration dependent
TACR1 [2] = molecular target: T1, TACR1; assay: TACR1 agonist and antagonist validation in Hek293 APPwt cells, amyloid beta ELISA; type: cell-based; details: Hek293 APPwt cells infected with Ad5/TACR1; increasing amounts of agonist, 24 h; concentration dependent

- amount of amyloid beta 1-42 secreted in the medium (TACR1 [1]): increased
- amount of amyloid beta x-42 secreted in the medium (TACR1 [1]): increased
- amount of amyloid beta 1-42 secreted in the medium (TACR1 [2]): decreased
- amount of amyloid beta x-42 secreted in the medium (TACR1 [2]): increased
Substance: substance P
